“Also recorded” adds a separate entry of the source.
System: laser-induced choroid coat angiogenesis
Assay: Mouse model of laser-induced choroid coat angiogenesis, WT1 peptide vaccine (Example 1)
Type: in vivo, mouse (C57BL/6J)
Excerpt: Two species of WT1 peptides: WT1126 (Arg Met Phe Pro Asn Ala Pro Tyr Leu (SEQ ID NO: 1)) and WT135 (Ala Pro Val Leu Asp Phe Ala Pro Pro Gly Ala Ser Ala Tyr Gly Ser Leu Gly (SEQ ID NO: 27)), were used as test substances.
Male C57BL/6J mice (provided by CLEA Japan, Inc.) were used. At the beginning of the experiment, the mice were 8 weeks old (body weight: about 20 to 25 g). The mice were free-fed with laboratory chow (manufactured by Oriental Yeast Co., Ltd.) and tap water. Six mice were used for each administration group.
As a WT1 peptide, WT1126 or WT135 was dissolved in sterilized PBS so that the concentration of the solution was 22.7 mg/mL. The resultant was diluted to 0.227 or 2.27 mg/mL with sterilized PBS. The resultant WT1 solution and Montanide ISA51 VG were mixed so that the volume ratio was 1:1.27 to prepare emulsions of 0.1 μg/μL, 1 μg/μL, and 10 μg/μL. Each of the emulsions was intracutaneously administered at 10 μL/body. Administered doses were 1 μg/body, 10 μg/body, and 100 μg/body. Timing of administrations were on 15, 22, 29, and 36 days after photocoagulation.
Specifically, with respect to the mice of administration groups (groups 1 to 4) administered with the test substance (WT1 peptide), the administration was carried out through the following procedure.
(1) Grouping was carried out on the basis of area of fluorescence leakage on 14 days after the photocoagulation.
(3) Abdomen was shaved with hair clippers, and then intracutaneous administration was carried out using a 30 G injection needle. […]
(2) Dilatation of pupils was carried out with Mydrin-P, and then general anesthesia was performed by intramuscular administration at 1 mL/kg of a mixture of Ketalar injection (manufactured by DAIICHI SANKYO COMPANY, LIMITED) and Celactal injection (manufactured by Bayer) (7:1). (3) Fluorescite (Manufactured by Alcon, Inc.) was injected at 0.1 mL/kg via the tail vein, and then fluorescence ocular fundus angiography was carried out using Micron III. (4) An area of fluorescence leakage was calculated using an image analysis software. […]

Arg Met Phe Pro Asn Ala Pro Tyr Leu (RMFPNAPYL; listed as Homo sapiens) [WT1126, WT1 peptide]
choroidal neovascular area at 6 weeks after the photocoagulation relative to area at 2 weeks after the photocoagulation (100 μg/body intracutaneous on days 15, 22, 29, 36 after photocoagulation, fluorescence ocular fundus angiography, FIG. 3): about 50% | choroidal neovascular area, change with administration (vs PBS administration group) (any applied dose of 1, 10 and 100 μg/body intracutaneous, time course 2 to 6 weeks, FIG. 3, FIG. 4): Decrease in choroidal neovascular area; also recorded: decreased | angiogenesis of the ocular fundus at 6 weeks after the photocoagulation compared to PBS administration group (intracutaneous, fluorescence ocular fundus angiography, FIG. 2): significantly suppressed

From US11413322B2, “Immunotherapy for angiogenic disease” (International Institute of Cancer Immunology, Inc., priority 2014, dated 2022)
